Legend:
[1] = target: Phosphatidylinositol 4,5-bisphosphate 3-kinase catalytic subunit alpha isoform (Homo sapiens, UniProt P42336, E542K)
[2] = target: Phosphatidylinositol 4,5-bisphosphate 3-kinase catalytic subunit alpha isoform (Homo sapiens, UniProt P42336, H1047R)
[3] = target: Phosphatidylinositol 4,5-bisphosphate 3-kinase catalytic subunit alpha isoform (Homo sapiens, UniProt P42336, E545K)
[4] = target: Phosphatidylinositol 4,5-bisphosphate 3-kinase catalytic subunit alpha isoform (Homo sapiens, UniProt P42336)

Chains of the proteins cited; added tags and fusions are not shown.
UniProt P42336, whole entry E542K: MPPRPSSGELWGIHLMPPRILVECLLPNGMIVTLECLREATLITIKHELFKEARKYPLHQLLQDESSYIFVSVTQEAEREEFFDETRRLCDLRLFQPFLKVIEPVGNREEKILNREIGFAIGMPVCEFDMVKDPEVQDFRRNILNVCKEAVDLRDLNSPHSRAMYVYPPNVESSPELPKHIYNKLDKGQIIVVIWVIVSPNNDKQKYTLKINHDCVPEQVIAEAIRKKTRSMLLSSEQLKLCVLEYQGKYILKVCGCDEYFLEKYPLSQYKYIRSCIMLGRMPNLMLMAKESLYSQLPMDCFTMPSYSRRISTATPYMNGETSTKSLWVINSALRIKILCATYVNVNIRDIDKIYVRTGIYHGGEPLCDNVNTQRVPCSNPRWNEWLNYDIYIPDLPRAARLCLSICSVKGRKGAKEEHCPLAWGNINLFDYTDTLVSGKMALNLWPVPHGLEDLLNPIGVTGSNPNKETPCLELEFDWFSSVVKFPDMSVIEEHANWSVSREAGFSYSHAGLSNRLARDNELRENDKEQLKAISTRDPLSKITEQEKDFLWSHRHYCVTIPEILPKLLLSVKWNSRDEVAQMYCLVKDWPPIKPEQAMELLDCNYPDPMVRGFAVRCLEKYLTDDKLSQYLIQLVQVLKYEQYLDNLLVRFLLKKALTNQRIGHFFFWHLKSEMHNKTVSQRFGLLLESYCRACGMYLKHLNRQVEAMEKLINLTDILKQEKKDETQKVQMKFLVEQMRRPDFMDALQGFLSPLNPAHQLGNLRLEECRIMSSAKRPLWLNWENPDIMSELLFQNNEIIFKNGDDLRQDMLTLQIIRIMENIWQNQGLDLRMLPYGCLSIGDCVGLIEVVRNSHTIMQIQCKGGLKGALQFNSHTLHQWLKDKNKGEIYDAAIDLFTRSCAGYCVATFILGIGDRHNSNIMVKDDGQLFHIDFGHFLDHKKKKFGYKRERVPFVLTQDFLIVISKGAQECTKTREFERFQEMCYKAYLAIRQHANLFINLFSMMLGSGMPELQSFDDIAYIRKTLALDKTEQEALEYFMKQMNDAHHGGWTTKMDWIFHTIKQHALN
UniProt P42336, whole entry H1047R: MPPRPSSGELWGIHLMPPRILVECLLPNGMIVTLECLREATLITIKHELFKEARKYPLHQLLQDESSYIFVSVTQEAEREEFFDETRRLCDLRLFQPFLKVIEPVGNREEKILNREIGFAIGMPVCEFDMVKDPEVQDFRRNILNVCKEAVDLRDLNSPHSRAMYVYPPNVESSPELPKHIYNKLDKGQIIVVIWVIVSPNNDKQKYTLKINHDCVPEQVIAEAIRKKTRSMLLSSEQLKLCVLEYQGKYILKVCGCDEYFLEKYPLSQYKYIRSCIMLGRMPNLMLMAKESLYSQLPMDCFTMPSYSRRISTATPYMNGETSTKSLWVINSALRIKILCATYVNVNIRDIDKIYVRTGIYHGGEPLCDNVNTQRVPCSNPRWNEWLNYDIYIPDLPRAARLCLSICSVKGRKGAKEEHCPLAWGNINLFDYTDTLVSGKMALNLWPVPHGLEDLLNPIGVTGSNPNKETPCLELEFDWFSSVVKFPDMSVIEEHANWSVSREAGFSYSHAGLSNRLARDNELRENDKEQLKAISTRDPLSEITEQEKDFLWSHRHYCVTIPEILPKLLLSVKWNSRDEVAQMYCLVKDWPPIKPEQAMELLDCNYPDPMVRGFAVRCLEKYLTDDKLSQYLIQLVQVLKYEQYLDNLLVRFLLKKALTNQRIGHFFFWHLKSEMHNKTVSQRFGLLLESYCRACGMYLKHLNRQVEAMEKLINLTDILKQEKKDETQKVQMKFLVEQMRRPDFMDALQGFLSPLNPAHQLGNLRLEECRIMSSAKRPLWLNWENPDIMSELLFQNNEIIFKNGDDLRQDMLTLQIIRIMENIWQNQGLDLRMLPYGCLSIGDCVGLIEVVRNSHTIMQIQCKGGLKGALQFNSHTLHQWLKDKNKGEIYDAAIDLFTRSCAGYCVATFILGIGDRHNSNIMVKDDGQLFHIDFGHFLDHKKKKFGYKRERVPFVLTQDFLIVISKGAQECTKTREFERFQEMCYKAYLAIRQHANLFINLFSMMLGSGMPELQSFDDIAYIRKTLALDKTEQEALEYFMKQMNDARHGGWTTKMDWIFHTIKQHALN
UniProt P42336, whole entry E545K: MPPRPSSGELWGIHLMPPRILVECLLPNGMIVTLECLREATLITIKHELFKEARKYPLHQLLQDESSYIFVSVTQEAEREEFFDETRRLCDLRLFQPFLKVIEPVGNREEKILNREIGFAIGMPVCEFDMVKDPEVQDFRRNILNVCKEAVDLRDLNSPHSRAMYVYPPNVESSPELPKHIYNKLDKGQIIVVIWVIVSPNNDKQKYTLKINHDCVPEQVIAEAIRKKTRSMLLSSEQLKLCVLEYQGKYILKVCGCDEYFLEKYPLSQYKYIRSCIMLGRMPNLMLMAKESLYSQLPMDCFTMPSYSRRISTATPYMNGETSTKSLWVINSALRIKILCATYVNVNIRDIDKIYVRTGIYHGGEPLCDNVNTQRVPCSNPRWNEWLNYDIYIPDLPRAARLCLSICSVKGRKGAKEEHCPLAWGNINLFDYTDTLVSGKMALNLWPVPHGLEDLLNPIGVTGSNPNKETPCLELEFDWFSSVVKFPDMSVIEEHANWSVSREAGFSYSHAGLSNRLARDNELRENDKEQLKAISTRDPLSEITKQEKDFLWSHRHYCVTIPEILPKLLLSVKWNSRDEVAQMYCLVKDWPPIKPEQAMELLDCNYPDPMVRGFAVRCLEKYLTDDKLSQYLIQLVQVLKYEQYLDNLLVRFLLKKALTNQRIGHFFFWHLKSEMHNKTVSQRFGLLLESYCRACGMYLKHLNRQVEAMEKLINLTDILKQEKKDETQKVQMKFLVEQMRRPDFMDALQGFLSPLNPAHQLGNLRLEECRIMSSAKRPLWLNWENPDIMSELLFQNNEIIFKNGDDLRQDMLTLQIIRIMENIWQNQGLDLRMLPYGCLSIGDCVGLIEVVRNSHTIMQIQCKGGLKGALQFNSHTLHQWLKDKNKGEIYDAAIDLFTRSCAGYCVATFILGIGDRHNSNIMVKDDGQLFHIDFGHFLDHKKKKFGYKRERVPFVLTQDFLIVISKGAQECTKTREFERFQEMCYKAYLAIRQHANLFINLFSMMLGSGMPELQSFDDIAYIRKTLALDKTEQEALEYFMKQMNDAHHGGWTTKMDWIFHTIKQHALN
UniProt P42336, whole entry: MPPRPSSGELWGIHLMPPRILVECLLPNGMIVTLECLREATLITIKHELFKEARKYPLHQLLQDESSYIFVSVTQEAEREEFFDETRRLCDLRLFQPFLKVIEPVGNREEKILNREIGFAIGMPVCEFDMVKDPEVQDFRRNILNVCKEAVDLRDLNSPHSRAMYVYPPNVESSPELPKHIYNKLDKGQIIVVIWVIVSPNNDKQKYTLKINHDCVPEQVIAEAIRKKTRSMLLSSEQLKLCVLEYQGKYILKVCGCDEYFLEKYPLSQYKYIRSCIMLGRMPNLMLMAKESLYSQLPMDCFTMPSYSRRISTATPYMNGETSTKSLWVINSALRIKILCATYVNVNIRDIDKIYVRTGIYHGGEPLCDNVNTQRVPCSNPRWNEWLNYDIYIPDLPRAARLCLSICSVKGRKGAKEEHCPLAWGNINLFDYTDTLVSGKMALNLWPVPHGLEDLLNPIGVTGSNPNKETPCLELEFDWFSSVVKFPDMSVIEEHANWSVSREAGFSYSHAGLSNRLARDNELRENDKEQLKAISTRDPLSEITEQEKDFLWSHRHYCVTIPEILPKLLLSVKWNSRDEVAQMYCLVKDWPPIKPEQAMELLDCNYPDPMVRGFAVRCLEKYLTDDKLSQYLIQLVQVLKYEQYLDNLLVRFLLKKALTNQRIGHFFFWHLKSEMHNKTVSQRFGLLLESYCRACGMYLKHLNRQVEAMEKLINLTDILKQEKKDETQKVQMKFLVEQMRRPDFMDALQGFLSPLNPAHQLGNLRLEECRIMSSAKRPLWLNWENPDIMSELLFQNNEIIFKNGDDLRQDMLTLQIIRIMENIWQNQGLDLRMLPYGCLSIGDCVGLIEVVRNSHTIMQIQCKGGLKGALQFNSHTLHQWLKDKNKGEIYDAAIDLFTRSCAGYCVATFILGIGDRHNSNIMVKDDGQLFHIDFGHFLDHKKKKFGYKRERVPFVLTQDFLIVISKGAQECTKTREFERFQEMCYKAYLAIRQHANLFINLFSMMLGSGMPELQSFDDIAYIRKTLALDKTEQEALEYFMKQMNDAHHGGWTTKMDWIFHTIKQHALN

Ki [1]: 3.1 nM
Ki [2]: 2.3 nM
Ki [3]: 1.9 nM
Ki [4]: 2.4 nM
SMILES: COCCNC(=O)c1nc2c(N3CCOCC3)nc(-c3cnc(N)nc3)cn2c1C

— ChEMBL document CHEMBL2057167, “Rapid identification of ETP-46992, orally bioavailable PI3K inhibitor, selective versus mTOR” (Bioorg Med Chem Lett, 2012)
